Among the data in paper PMC6928210, “Structural basis of methotrexate and pemetrexed action on serine hydroxymethyltransferases revealed using plant models” (Scientific Reports, 2019) are Ki and Km values, retold here.

One may read the Ki as the dissociation constant of the complex between target and ligand, obtained from inhibition or displacement. Usually Km stands for the concentration of substrate that gives half-maximal velocity.

One assay concerns the target TS. Details: method as in PMID 10856298. As to conditions: read-out: Ki against TS; cited from earlier work.
The next assay deals with T1, AtSHMT2 (Arabidopsis thaliana, UniProt Q94C74).
T1 construct: the protein N-truncated at E41; The open reading frames coding for AtSHMT2 41–517 fragment; His6 (N, cleaved yes); made in house; host or cells: E. coli BL21 Gold
T1 sequence (Q94C74 41-517): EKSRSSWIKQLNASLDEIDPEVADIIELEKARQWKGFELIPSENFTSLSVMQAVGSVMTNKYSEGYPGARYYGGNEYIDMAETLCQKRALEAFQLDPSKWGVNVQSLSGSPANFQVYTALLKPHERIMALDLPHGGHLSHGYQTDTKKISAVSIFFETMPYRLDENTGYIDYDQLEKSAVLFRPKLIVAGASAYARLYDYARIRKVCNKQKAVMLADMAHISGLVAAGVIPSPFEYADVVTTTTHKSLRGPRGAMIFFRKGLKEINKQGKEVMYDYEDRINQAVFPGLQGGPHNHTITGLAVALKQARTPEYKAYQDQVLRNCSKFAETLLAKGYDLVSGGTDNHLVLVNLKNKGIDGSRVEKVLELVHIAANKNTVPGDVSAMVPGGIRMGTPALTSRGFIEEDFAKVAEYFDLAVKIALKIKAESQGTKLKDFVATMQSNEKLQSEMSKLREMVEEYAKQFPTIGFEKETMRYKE
Nature of the assay: SHMT forward reaction (serine + THF), coupled assay, initial velocity. It counts as biochemical. As to conditions: 30 °C.

The target in another assay is T2, AtSHMT4 (Arabidopsis thaliana, UniProt O23254).
T2 construct: The open reading frames coding for AtSHMT2 41–517 fragment and full-length AtSHMT4 were amplified; His6 (N, cleaved yes); made in house; host or cells: E. coli BL21 Gold
T2 sequence (O23254 1-471): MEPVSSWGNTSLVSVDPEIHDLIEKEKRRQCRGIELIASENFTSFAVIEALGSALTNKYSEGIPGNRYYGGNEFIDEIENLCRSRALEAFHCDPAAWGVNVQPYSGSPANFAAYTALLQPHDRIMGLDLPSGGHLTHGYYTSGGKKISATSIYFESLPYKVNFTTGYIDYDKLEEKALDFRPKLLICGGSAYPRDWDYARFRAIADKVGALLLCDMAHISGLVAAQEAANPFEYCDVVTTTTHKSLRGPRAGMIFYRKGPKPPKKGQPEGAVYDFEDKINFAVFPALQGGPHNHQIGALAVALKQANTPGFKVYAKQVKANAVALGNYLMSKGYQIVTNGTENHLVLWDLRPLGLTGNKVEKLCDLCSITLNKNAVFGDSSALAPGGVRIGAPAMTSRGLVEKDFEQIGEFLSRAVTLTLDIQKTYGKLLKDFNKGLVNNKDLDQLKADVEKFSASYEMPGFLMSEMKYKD
Described as above. Particulars: AtSHMT4, pH 9.5, 30 mM L-serine fixed, 30 °C. It counts as biochemical.

For the compound `Nc1nc2[nH]cc(CCc3ccc(C(=O)N[C@@H](CCC(=O)O)C(=O)O)cc3)c2c(=O)[nH]1` [PTX, pemetrexed], the Ki at TS is 109 nM.

In the case of tetrahydrofolate [THF], the Km came out at 154 ± 10.9 µM on AtSHMT2 (AtSHMT2, pH 7, 30 mM L-serine fixed); 144 ± 12.6 µM on AtSHMT2 (AtSHMT2, pH 8, 30 mM L-serine fixed); 196 ± 14.6 µM on AtSHMT2 (AtSHMT2, pH 8.5, 30 mM L-serine fixed); 192 ± 10.4 µM at AtSHMT2 (AtSHMT2, pH 9.5, 30 mM L-serine fixed); 49.2 ± 6.62 µM on AtSHMT4.
